{"source": "patent US20220152156A1", "about": "“METHOD OF USING PEGYLATED INTERFERON-ALPHA” (PharmaEssentia Corporation, priority 2020, published 2022)", "key": {"PV patients": {"tested_on": "PV patients", "test": "PROUD-PV/CONTINUATION-PV phase III study: complete hematologic response (CHR)", "assay_type": "in vivo, human", "conditions": "for Complete hematologic response Responder % / Complete hematologic response Responder/N: discontinued patients counted as non-responders", "source_text": "Cytoreduction-naïve or HU-pre-treated patients aged ≥18 years diagnosed with PV according to WHO 2008 criteria were eligible. […] The PROUD-PV study was a randomized, open-label, multicenter, controlled, parallel arm, phase III study assessing the efficacy and safety of ropeg versus HU in PV patients.\nIn the ongoing extension phase (CONTINUATION-PV or CONTI-PV), patients in the HU arm were permitted to switch to best available treatment. Efficacy assessments included a longitudinal analysis of complete hematological response and complete molecular response, defined by modified ELN criteria. Discontinued patients were considered non-responders. Data were analyzed for patients reaching 48 months and 60 months of treatment.\nLong-term disease responses were presented as complete hematologic response (CHR) alone or in relation to spleen size. CHR includes hematocrit <45% (without phlebotomy for at least 3 months), platelet count <400×10^9/L, white blood cell count <10×10^9 cells/L, with or without normal spleen size (measured via ultrasound; ≤12 cm for females, ≤13 cm for males), and absence of thromboembolic events.\nEfficacy analysis included CHR, spleen normality, and improvement in disease burden such as disease-related signs and symptoms."}, "JAK2V617F allele burden": {"tested_on": "JAK2V617F allele burden", "test": "PROUD-PV/CONTINUATION-PV: JAK2V617F allele burden and molecular response (real-time PCR)", "assay_type": "in vivo, human"}, "[1]": {"conditions": "month 12 (EOT in PR), LOCF table"}, "[2]": {"conditions": "60 months, only patients with baseline value ≥10%"}}, "data": [{"substance": "ropeginterferon alpha-2b", "values": [{"measurement": "Median duration of maintenance of CHR", "setting": "PV patients; 52-month observation period", "value": "median was not reached"}, {"measurement": "Discontinued patients showing CHR at their last visits", "setting": "PV patients; among discontinued patients", "value": 68, "unit": "%"}, {"measurement": "Percentage of phlebotomy-free patients vs control (FIG. 2)", "setting": "PV patients; at the 4-year and 5-year treatment", "value": "significant greater percentage"}, {"measurement": "Patients with hematocrit <45% maintained without the need for phlebotomy", "setting": "PV patients; fifth year of treatment", "value": 81.8, "unit": "%"}, {"measurement": "Rate of patients in CHR", "setting": "PV patients; in the 4th year", "value": 60.6, "unit": "%"}, {"measurement": "Maintenance periods of longest CHR with no increase in spleen size and longest CHR with normal spleen size, vs control", "setting": "PV patients; in vivo", "value": "Longer maintenance periods"}, {"measurement": "CHR RR [95% CI] (Ropeg/Control)", "setting": "PV patients; [1]", "value": "0.85 (0.70-1.04)"}, {"measurement": "CHR Responder %", "setting": "PV patients; [1]", "value": 62.1, "unit": "%"}, {"measurement": "CHR Responder N", "setting": "PV patients; [1]", "value": 59}, {"measurement": "CHR RR [95% CI] (Ropeg/Control)", "setting": "PV patients; month 12 (EOT in PR), discontinued = non-responders", "value": "0.85 (0.70-1.05)"}, {"measurement": "Complete hematologic response Responder %", "setting": "PV patients; month 12 (EOT in PR)", "value": 62.1, "unit": "%"}, {"measurement": "Complete hematologic response Responder/N", "setting": "PV patients; month 12 (EOT in PR)", "value": "59/95"}, {"measurement": "CHR RR [95% CI] (Ropeg/Control)", "setting": "PV patients; month 24 (LOCF)", "value": "1.27 (1.02-1.60)"}, {"measurement": "CHR Responder %", "setting": "PV patients; month 24 (LOCF)", "value": 73.7, "unit": "%"}, {"measurement": "CHR Responder N", "setting": "PV patients; month 24 (LOCF)", "value": 70}, {"measurement": "CHR RR [95% CI] (Ropeg/Control)", "setting": "PV patients; month 24, discontinued = non-responders", "value": "1.41 (1.07-1.84)"}, {"measurement": "Complete hematologic response Responder %", "setting": "PV patients; month 24", "value": 70.5, "unit": "%"}, {"measurement": "Complete hematologic response Responder/N", "setting": "PV patients; month 24", "value": "67/95"}, {"measurement": "CHR RR [95% CI] (Ropeg/Control)", "setting": "PV patients; month 36 (LOCF)", "value": "1.43 (1.13-1.81)"}, {"measurement": "CHR Responder %", "setting": "PV patients; month 36 (LOCF)", "value": 76.8, "unit": "%"}, {"measurement": "CHR Responder N", "setting": "PV patients; month 36 (LOCF)", "value": 73}, {"measurement": "CHR RR [95% CI] (Ropeg/Control)", "setting": "PV patients; month 36, discontinued = non-responders", "value": "1.39 (1.08-1.78)"}, {"measurement": "Complete hematologic response Responder %", "setting": "PV patients; month 36", "value": 70.5, "unit": "%"}, {"measurement": "Complete hematologic response Responder/N", "setting": "PV patients; month 36", "value": "67/95"}, {"measurement": "CHR RR [95% CI] (Ropeg/Control)", "setting": "PV patients; month 48 (LOCF)", "value": "1.46 (1.13-1.89)"}, {"measurement": "CHR Responder %", "setting": "PV patients; month 48 (LOCF)", "value": 71.6, "unit": "%"}, {"measurement": "CHR Responder N", "setting": "PV patients; month 48 (LOCF)", "value": 68}, {"measurement": "CHR RR [95% CI] (Ropeg/Control)", "setting": "PV patients; month 48, discontinued = non-responders", "value": "1.39 (1.04-1.86)"}, {"measurement": "Complete hematologic response Responder %", "setting": "PV patients; month 48", "value": 60.6, "unit": "%"}, {"measurement": "Complete hematologic response Responder/N", "setting": "PV patients; month 48", "value": "57/94"}, {"measurement": "CHR Non-Responder %", "setting": "PV patients; month 60", "value": 44.2, "unit": "%"}, {"measurement": "CHR Non-Responder/N", "setting": "PV patients; month 60", "value": "42/95"}, {"measurement": "Not meeting CHR because of Hct and platelets, % of non-responders", "setting": "PV patients; month 60", "value": 7.1, "unit": "%"}, {"measurement": "Not meeting CHR because of Hct and platelets, patients", "setting": "PV patients; month 60", "value": 3}, {"measurement": "Not meeting CHR because of hematocrit (Hct), % of non-responders", "setting": "PV patients; month 60", "value": 28.6, "unit": "%"}, {"measurement": "Not meeting CHR because of hematocrit (Hct), patients", "setting": "PV patients; month 60", "value": 12}, {"measurement": "Not meeting CHR because of platelets, % of non-responders", "setting": "PV patients; month 60", "value": 4.8, "unit": "%"}, {"measurement": "Not meeting CHR because of platelets, patients", "setting": "PV patients; month 60", "value": 2}, {"measurement": "Not meeting CHR because of premature discontinuation, % of non-responders", "setting": "PV patients; month 60", "value": 59.5, "unit": "%"}, {"measurement": "CHR RR [95% CI] (Ropeg/Control)", "setting": "PV patients; month 60 (LOCF)", "value": "1.43 (1.12-1.81)"}, {"measurement": "CHR Responder %", "setting": "PV patients; month 60 (LOCF)", "value": 72.6, "unit": "%"}, {"measurement": "CHR Responder N", "setting": "PV patients; month 60 (LOCF)", "value": 69}, {"measurement": "CHR RR [95% CI] (Ropeg/Control)", "setting": "PV patients; month 60, discontinued = non-responders", "value": "1.30 (0.95-1.77)"}, {"measurement": "Complete hematologic response Responder %", "setting": "PV patients; month 60", "value": 55.8, "unit": "%"}, {"measurement": "Complete hematologic response Responder/N", "setting": "PV patients; month 60", "value": "53/95"}, {"measurement": "Additional patients achieving an allele burden <10%", "setting": "JAK2V617F allele burden; 48 months", "value": 34}, {"measurement": "Patients with JAK2V617F <1%", "setting": "JAK2V617F allele burden; 48 months", "value": 13}, {"measurement": "Patients with JAK2V617F <1% and CHR", "setting": "JAK2V617F allele burden; 48 months", "value": 11}, {"measurement": "Patients with JAK2V617F <1% and CHR, %", "setting": "JAK2V617F allele burden; 48 months", "value": 11.7, "unit": "%"}, {"measurement": "Patients with JAK2V617F <1%, %", "setting": "JAK2V617F allele burden; 48 months", "value": 13.8, "unit": "%"}, {"measurement": "Patients with JAK2V617F ≥1 to <10%", "setting": "JAK2V617F allele burden; 48 months", "value": 34}, {"measurement": "Patients with JAK2V617F ≥1 to <10% and CHR", "setting": "JAK2V617F allele burden; 48 months", "value": 24}, {"measurement": "Patients with JAK2V617F ≥1 to <10% and CHR, %", "setting": "JAK2V617F allele burden; 48 months", "value": 25.5, "unit": "%"}, {"measurement": "Patients with JAK2V617F ≥1 to <10%, %", "setting": "JAK2V617F allele burden; 48 months", "value": 36.2, "unit": "%"}, {"measurement": "JAK2V617F undetectable and CHR", "setting": "JAK2V617F allele burden; [2]", "value": "4/5"}, {"measurement": "JAK2V617F ≥0.01% to <1% and CHR", "setting": "JAK2V617F allele burden; [2]", "value": "9/10"}, {"measurement": "JAK2V617F ≥1 to <10% and CHR", "setting": "JAK2V617F allele burden; [2]", "value": "19/22"}, {"measurement": "Total patients with JAK2V617F <10%, %", "setting": "JAK2V617F allele burden; [2]", "value": 53, "unit": "%"}, {"measurement": "JAK2V617F allele burden, mean", "setting": "JAK2V617F allele burden; Baseline", "value": 42.8, "unit": "%"}, {"measurement": "JAK2V617F allele burden, median", "setting": "JAK2V617F allele burden; Baseline", "value": 37.3, "unit": "%"}, {"measurement": "Molecular response RR (ropeg vs control)", "setting": "JAK2V617F allele burden; at 5 years", "value": 3.2}, {"measurement": "Rate of molecular response", "setting": "JAK2V617F allele burden; at 5 years", "value": 69.1, "unit": "%"}, {"measurement": "Molecular response RR (ropeg vs control)", "setting": "JAK2V617F allele burden; at 48 months", "value": 2.5}, {"measurement": "Rate of molecular response (partial or complete)", "setting": "JAK2V617F allele burden; at 48 months", "value": 67.0, "unit": "%"}, {"measurement": "Median JAK2V617F allele burden", "setting": "JAK2V617F allele burden; at baseline", "value": 37.3, "unit": "%"}, {"measurement": "Molecular response Responder %", "setting": "JAK2V617F allele burden; [1]", "value": 43.6, "unit": "%"}, {"measurement": "Molecular response Responder/N", "setting": "JAK2V617F allele burden; [1]", "value": "41/94"}, {"measurement": "JAK2V617F allele burden RR [95% CI] (Ropeg/Control)", "setting": "JAK2V617F allele burden; month 12, LOCF table", "value": "6.646 (0.86 to 12.43)"}, {"measurement": "JAK2V617F allele burden, mean", "setting": "JAK2V617F allele burden; month 12, LOCF table", "value": 30.2, "unit": "%"}, {"measurement": "JAK2V617F allele burden, median", "setting": "JAK2V617F allele burden; month 12, LOCF table", "value": 24.4, "unit": "%"}, {"measurement": "JAK2V617F allele burden RR [95% CI] (Ropeg/Control)", "setting": "JAK2V617F allele burden; month 24 (LOCF)", "value": "−10.745 (−16.50 to −4.98)"}, {"measurement": "JAK2V617F allele burden, mean", "setting": "JAK2V617F allele burden; month 24 (LOCF)", "value": 20.9, "unit": "%"}, {"measurement": "JAK2V617F allele burden, median", "setting": "JAK2V617F allele burden; month 24 (LOCF)", "value": 14.3, "unit": "%"}, {"measurement": "Molecular response Responder %", "setting": "JAK2V617F allele burden; month 24 (LOCF)", "value": 68.1, "unit": "%"}, {"measurement": "Molecular response Responder/N", "setting": "JAK2V617F allele burden; month 24 (LOCF)", "value": "64/94"}, {"measurement": "JAK2V617F allele burden RR [95% CI] (Ropeg/Control)", "setting": "JAK2V617F allele burden; month 36 (LOCF)", "value": "−18.722 (−24.49 to −12.96)"}, {"measurement": "JAK2V617F allele burden, mean", "setting": "JAK2V617F allele burden; month 36 (LOCF)", "value": 19.7, "unit": "%"}, {"measurement": "JAK2V617F allele burden, median", "setting": "JAK2V617F allele burden; month 36 (LOCF)", "value": 11.3, "unit": "%"}, {"measurement": "Molecular response Responder %", "setting": "JAK2V617F allele burden; month 36 (LOCF)", "value": 66.0, "unit": "%"}]}]}
